According to PubChem BioAssay AID588501 (NMMLSC, 2011):
Only a part is listed here, and it is no random draw. Some tests of the compounds listed are not included; inactive here does not mean inactive elsewhere. Activity calls are given as the source filed them. No stated cut-off is given here; in the data, active means inhibition above about 30%; inconclusive means no clear call, values can overlap the other calls; inactive means below that.

The compounds below were run against Lethal factor (Bacillus anthracis) (UniProt P15917) (assay: anthrax lethal factor cleavage blockers – biochemical, multiplex microsphere, MLPCN library, primary screen (AID 588501; further: plate controls were buffer without enzyme for full effect and enzyme alone for no effect)). Details: multiplex microsphere protease cleavage assay, LF; at 10 µM; hits give high values.
In the case of `C=C(C)C#CC(O)(C(=O)OC1CCN(C)CC1)c1ccccc1` (stereo unspecified), the inhibition is reported as inactive: 2%.
In the case of `COc1ccc(Br)c(C(=O)NCC2(N3CCCCC3)CCCCC2)c1`, the inhibition is reported as inactive: 2.8%.
`CC(C)Oc1ccc(C(=O)NCC2(N(C)C)CCCCC2)cc1` was tested, and the inhibition was inactive: 4.8%.
`O=C(OCCN1CCCC1)C(O)(c1ccccc1)c1ccccc1` was tested, and the inhibition was inactive: 0.5%.
In the case of `CN(C)c1cccc(C(=O)NCC2(N(C)C)CCCCC2)c1`, the inhibition is reported as inactive: -0.1%.
`O=C(OC1CN2CCC1CC2)C(CO)(c1ccccc1)c1ccccc1` (stereo unspecified) was tested, and the inhibition was inactive: -1.6%.
`COc1cccc(C(=O)NCC2(N3CCCCC3)CCCCC2)c1` was tested, and the inhibition was inactive: 1.6%.
`COc1ccc(Cl)cc1C(=O)NCC1(N(C)C)CCCCC1` was tested, and the inhibition was inactive: -1.3%.
For `O=C(NCC1(N2CCCCC2)CCCCC1)c1cccc(Cl)c1`, the inhibition was inactive: 10%.
`CN(C)C1(CNC(=O)c2ccc(Br)cc2)CCCCC1` was tested, and the inhibition was inactive: 4.8%.
For `COc1cc(C(=O)NCC2(N(C)C)CCCCC2)c([N+](=O)[O-])cc1OC`, the inhibition was inactive: -11.5%.
`C=CCN1CCN(CCOC(=O)C(O)(c2ccccc2)c2ccccc2)CC1` was tested, and the inhibition was inactive: -7.8%.
In the case of `O=C(NCC1(N2CCCCC2)CCCCC1)c1cc(F)c(F)cc1Cl`, the inhibition is reported as inactive: -1.2%.
With `COc1ccc(C(=O)NCC2(N(C)C)CCCCC2)cc1` the inhibition was inactive: 6.6%.
`CCN1CCCC(OC(=O)C2(O)c3ccccc3C=Cc3ccccc32)C1` (stereo unspecified) was tested, and the inhibition was inactive: 0.6%.
`Cc1cc(C(=O)NCC2(N3CCCCC3)CCCCC2)ccc1[N+](=O)[O-]` was tested, and the inhibition was inactive: -7.5%.
With `O=C(NCC1(N2CCCCC2)CCCCC1)c1cccc(Br)c1` the inhibition was inactive: 2.5%.
`Cc1ccccc1C(=O)NCC1(N2CCCCC2)CCCCC1` was tested, and the inhibition was inactive: -2.4%.
With `CN(C)c1ccc(C(=O)NCC2(N(C)C)CCCCC2)cc1` the inhibition was inactive: -6.4%.
For `CN(C)C1CCCC1OC(=O)C(O)(c1ccccc1)c1ccccc1` (stereo unspecified), the inhibition was inactive: -1.4%.
For `CCN(CC)CC(C)C(C)OC(=O)C(O)(c1ccccc1)c1ccccc1` (stereo unspecified), the inhibition was inactive: -0.2%.
For `COc1cc(SC)ccc1C(=O)NCC1(N(C)C)CCCCC1`, the inhibition was inactive: 7.7%.
With `CC(C)N1C(=O)CC2(CCN(CCOC(=O)C(O)(c3ccccc3)c3ccccc3)CC2)C1=O` the inhibition was inactive: 6.2%.
For `Cc1ccc(C(=O)NCC2(N3CCCCC3)CCCCC2)cc1`, the inhibition was inactive: 3%.
With `O=C(NCC1(N2CCCCC2)CCCCC1)c1cc([N+](=O)[O-])ccc1Cl` the inhibition was inactive: -4.7%.
With `CN1[C@@H]2CC[C@H]1CC(OC(=O)C(O)(c1ccccc1)c1ccccc1)C2` (stereo partly specified) the inhibition was inactive: -8.2%.
